1 compound from patent US20060229358A1, “Pharmaceutical composition containing flavonoids” (Taipei Medical University, priority 2005, published 2006) can be followed below.

The subject of one experiment is PDE4. The experiment is described as follows: Inhibition of cyclic nucleotide PDE activity (Assay I), PDE4, incl. Lineweaver-Burk analysis. It is filed as biochemical, guinea pig. As to conditions: from the IC50s of Table 2.
Experiment [1] concerns high affinity rolipram binding sites (HARBS, PDE4H). The experiment can be described thus: Binding to particulate HARBS of whole brain, displacement of [3H]-rolipram (Assay II). Also on record: species or system guinea pig. The conditions noted are these: HARBS 50% binding concentration over PDE4 IC50. As for the experimental part: The binding experiments are carried on basis of the methods of Schneider et al. and Zhao et al. with a small modification. Under a protocol approved by the Animal Care and Use Committee of Taipei Medical University, five male guinea pigs (Hartley), weighing 500-600 g, were anesthetized. The whole brains taken therefrom were homogenized with in 10 volumes of cold medium (pH 6.5) containing 20 mM Bis-Tris, 2 mM benzamidine, 2 mM EDTA, 50 mM sodium chloride, 0.1 mM phenylmethanesulfonyl fluoride (PMSF), and 1 mM dithiothreitol. At 4° C., the homogenate was centrifuged at 170 g for 15 min for removing blood vessels and connective tissues, and the supernatant thereof was then re-centrifuged at 40,000 g for 30 min for separating the particulates from the cytosol of cells. […]
The respective binding abilities of the test drugs (flavonoids) to membrane HARBS are performed in a 25 μl of reaction solution, containing 10 μl of [^3H]-rolipram, 10 μl of particulate suspension, and 5 μl of test drugs or selective PDE4 inhibitors for 60 min at 30° C., wherein the reaction buffer contained 50 mM Tris-HCl, 5 mM MgCl2 (pH 7.5). […] The Whatman GF/B filter was mixed with 2 ml of cocktail and counted by the β-scintillation counter (Backman, Fullerton, Calif., USA) for counting the radioactivity thereof.
For orientation: Loss of bound radioactivity is the signal in a displacement assay; it reports binding, not function.

In the case of `COc1ccc(C2CC(=O)c3c(O)cc(O)cc3O2)cc1O` (centres unmarked) [Hesperetin], the “selectivity among PDE1-5” value in the experiment on PDE4 is reported as “more-selective inhibition on PDE4”. For the same compound, in experiment [1], the PDE4H/PDE4L ratio entry is given as “greater than 11”.
